PTAP TSG101 blk: qHTS Assay for Iinhibitors of HIV-1 Budding by Blocking the Interaction of PTAP/TSG101. Tumor susceptibility gene 101 protein (Homo sapiens), Q99816. Fluorescence polarization, FITC-PTAP peptide / Tsg101 binding. Potency, µM (doses to about 115 µM), actives largely listed as inhibitors. 340,000 tested, under 10 active; active means well fitted inhibition curve with a large enough effect in the main read-out, with a control signal flat, not every such curve was filed as active; inconclusive means small, poorly fitted or top-dose-only effect, or effect the other way, or a change in a side signal; inactive means no such curve, though single readings can be large or run the other way
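Fluorescence polarization binding of Tsg101 binding domain (10 uM final) to FITC-labeled PTAP peptide (50 nM final) in HEPES pH 7.5 buffer with NaCl, Tween 20, EDTA, TCEP. Compounds added before peptide; binding 20 min at RT.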
Rango release inh: qHTS Assay for Inhibitors of RanGTP induced Rango (Ran-regulated importin-beta cargo) - Importin beta complex dissociation. AID 540253, 2011. Snurportin-1 (Homo sapiens) + GTP-binding nuclear protein Ran (Homo sapiens) + Importin …. Potency, µM (highest dose often 46.1 µM). 0.071% of 340,000 active. Biochemical FRET Rango-importin beta, RanGTP-induced dissociation; calls by dose curve; further: nearly all actives have a fitted effect of over 45% in size
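Compounds sat 5 min at room temperature with 0.1 uM Rango biosensor plus 0.25 uM importin beta, then FRET pre-read. RanGTP-RCC1 (0.6 uM Ran, 2mM GTP, 0.2 uM RCC1) added for 45 min, and the CFP/YFP post-read measured blocked complex dissociation.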
TDP1 block: qHTS Assay for Inhibitors of Tyrosyl-DNA Phosphodiesterase (TDP1); recombinant TDP1, AlphaScreen DNA substrate cleavage; 0.28% of 350,000 active; Potency, µM (series often up to 130 µM), hits mostly inhibitors; AID 485290, 2010; Tyrosyl-DNA phosphodiesterase 1 (Homo sapiens), Q9NUW8; further: nearly all actives have a fitted effect of over 40% in size
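Tdp1 1 nM final; 15 min RT w/ cpd; substrate 15 nM, 5 min; beads 10 ug/ml, 10 min; AlphaScreen read. Neg ctrl: no enzyme.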
ClpP mod: qHTS Assay for Activators of ClpP. ATP-dependent Clp protease proteolytic subunit (Bacillus subtilis (strain 168)), P80244. purified B. subtilis ClpP, FRET peptide cleavage, 20 min. Potency, µM (highest dose often 57.5 µM). 1.9% of 340,000 active; active means well fitted falling curve with a large enough effect; inconclusive means small, poorly fitted or top-dose-only effect; inactive means no such curve, though single readings can be large or run the other way; further: the source files actives as falling curves though it sought activators and does not explain the sign; nearly all actives have a fitted effect of over 65% in size
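Purified B. subtilis ClpP, 10 microg/mL final in Tris/HCl pH8 with KCl, BSA, glycerol and Tween-20, cleaved an Abz/nitrotyrosine-quenched decapeptide. Fluorescence (ex 320, em 430) was read at 0 and 20 min at room temperature. Delta was normalized to 5.8 microM ADEP and DMSO/no-enzyme controls.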
ALOX12 inh: Primary qHTS assay for inhibitors of human arachidonate 12S-lipoxygenase (ALOX12): Round 2 | Polyunsaturated fatty acid lipoxygenase ALOX12 (Homo sapiens), P18054 | purified 12hLO, xylenol orange hydroperoxide absorbance | Potency, µM (top dose mostly 108 µM), usual class: inhibitors | 1.1% of 580,000 active
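Purified human 12hLO (150 nM final) in 25 mM Hepes, 0.01% Triton X-100, pH 7.0 was preincubated 15 min at room temperature with compound. Then 40 uM arachidonic acid was added, 30 min. Hydroperoxide was read by Fe-XO absorbance ratio 573/405 nm.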
Rango complex inh: qHTS Assay for Inhibitors of Rango (Ran-regulated importin-beta cargo) - Importin beta complex formation; Rango CFP/YFP FRET sensor + importin beta, 45 min; 0.031% of 340,000 active; Potency, µM (titrated, usually from 92.2 µM); Importin subunit beta-1 (Homo sapiens), Q14974; calls by dose curve; further: nearly all actives have a fitted effect of over 15% in size
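Inhibition scored from the CFP 486 nm/YFP 530 nm FRET ratio 45 min after adding 0.125 microM importin beta to 50 nM Rango biosensor preincubated 5 min with compound (room temperature, PBS with DTT, Tween-20, BSA). No-importin wells as positive control.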
Each line names hits and unclear results; the compound was inactive in the other large screens; ! = a repeat was not active. This is a sample that favours compounds with a hit; in the whole collection about 2.4% have one here. Unless noted, the call rests on the fitted dose curve; in most records, active means well fitted curve in the direction sought with a large enough effect; inconclusive means small, poorly fitted or top-dose-only effect, or another doubt; inactive means no such curve, though single readings can be large; an effect the other way counts as inactive or inconclusive.

By UniProt entry, the sequences of proteins in these tests, tags left out.
Tumor susceptibility gene 101 protein (Homo sapiens), Q99816, UniProt Q99816, whole entry, looked up: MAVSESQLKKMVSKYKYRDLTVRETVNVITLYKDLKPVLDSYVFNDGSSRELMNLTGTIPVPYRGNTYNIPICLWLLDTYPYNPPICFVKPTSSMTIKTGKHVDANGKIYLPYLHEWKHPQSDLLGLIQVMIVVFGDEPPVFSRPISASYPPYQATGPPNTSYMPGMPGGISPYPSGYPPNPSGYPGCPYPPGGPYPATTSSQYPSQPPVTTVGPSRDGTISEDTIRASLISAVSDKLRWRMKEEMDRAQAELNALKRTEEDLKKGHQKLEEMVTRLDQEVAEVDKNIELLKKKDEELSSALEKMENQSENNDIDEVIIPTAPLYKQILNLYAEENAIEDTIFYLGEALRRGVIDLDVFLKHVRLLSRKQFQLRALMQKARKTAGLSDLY
Tyrosyl-DNA phosphodiesterase 1 (Homo sapiens), Q9NUW8, UniProt Q9NUW8, whole entry, looked up: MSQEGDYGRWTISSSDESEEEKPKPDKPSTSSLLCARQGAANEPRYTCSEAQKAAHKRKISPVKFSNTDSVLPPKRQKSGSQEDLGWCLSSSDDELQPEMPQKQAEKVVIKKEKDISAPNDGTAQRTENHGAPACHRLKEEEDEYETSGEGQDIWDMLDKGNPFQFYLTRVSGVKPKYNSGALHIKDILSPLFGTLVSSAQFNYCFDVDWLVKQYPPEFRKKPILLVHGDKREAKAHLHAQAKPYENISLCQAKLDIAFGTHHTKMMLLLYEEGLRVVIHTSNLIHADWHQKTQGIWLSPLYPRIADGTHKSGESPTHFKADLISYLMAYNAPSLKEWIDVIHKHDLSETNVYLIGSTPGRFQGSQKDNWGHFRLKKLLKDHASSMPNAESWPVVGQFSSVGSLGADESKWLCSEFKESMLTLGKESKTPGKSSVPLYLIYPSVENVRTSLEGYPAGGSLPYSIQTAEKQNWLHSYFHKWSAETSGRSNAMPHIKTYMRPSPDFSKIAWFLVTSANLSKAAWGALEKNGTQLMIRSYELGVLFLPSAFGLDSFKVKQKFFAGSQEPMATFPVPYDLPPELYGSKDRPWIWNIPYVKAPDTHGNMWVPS
Importin subunit beta-1 (Homo sapiens), Q14974, UniProt Q14974, whole entry, looked up: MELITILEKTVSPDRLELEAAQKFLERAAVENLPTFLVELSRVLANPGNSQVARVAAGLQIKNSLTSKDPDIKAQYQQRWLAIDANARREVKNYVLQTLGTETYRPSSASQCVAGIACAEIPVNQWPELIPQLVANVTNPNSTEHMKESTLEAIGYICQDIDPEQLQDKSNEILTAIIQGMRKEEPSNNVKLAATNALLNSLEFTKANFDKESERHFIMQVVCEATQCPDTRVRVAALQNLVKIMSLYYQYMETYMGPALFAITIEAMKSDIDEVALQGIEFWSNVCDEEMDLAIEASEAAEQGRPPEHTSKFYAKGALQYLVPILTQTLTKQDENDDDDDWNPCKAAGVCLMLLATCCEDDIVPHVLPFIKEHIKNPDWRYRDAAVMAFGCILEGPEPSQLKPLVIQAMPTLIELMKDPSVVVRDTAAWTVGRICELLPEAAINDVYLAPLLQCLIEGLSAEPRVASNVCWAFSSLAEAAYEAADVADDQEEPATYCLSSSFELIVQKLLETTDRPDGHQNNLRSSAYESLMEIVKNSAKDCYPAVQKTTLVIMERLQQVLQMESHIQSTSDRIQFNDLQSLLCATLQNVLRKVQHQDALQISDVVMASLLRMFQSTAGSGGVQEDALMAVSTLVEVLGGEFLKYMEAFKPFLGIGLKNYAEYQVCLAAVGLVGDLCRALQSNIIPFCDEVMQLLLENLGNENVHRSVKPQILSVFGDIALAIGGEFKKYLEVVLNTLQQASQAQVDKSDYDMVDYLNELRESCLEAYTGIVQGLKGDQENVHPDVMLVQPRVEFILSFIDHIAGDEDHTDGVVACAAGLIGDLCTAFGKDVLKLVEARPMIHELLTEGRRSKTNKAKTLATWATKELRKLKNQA

CC(=O)OCC1=C(C(=O)O)N2C(=O)C(NC(=O)CCCC(N)C(=O)O)C2SC1 (configuration not stated)	TDP1 block 25.1µM (no result: PTAP TSG101 blk, Rango release inh, ClpP mod, ALOX12 inh, Rango complex inh)
CCOP(=O)(OCC)c1ccc(OP(=O)(c2cccc([N+](=O)[O-])c2)c2cccc([N+](=O)[O-])c2)cc1	ClpP mod 35.5µM, ALOX12 inh inconclusive
COc1cc(C2SCC(=O)Nc3c2c(C)nn3C)ccc1OCc1ccccc1C (configuration not stated)	none (no result: PTAP TSG101 blk, Rango release inh, TDP1 block, ClpP mod, Rango complex inh)
NC1C=CC=C(C(=O)O)C1 (configuration not stated)	TDP1 block 3.98µM!
CC(OC(=O)c1cn(C)c2ccccc12)C(=O)NC(C)(C)C (configuration not stated)	none (no result: PTAP TSG101 blk, Rango release inh, TDP1 block, ClpP mod, Rango complex inh)
O=C1NCCCCCCN(Cc2ccncc2F)[C@H]2CCC[C@@H]12	none (no result: PTAP TSG101 blk, Rango release inh, TDP1 block, ClpP mod, Rango complex inh)
Cc1ccc(N2C(=O)NC(=O)/C(=C\c3cc(C)n(-c4sc5c(c4C#N)CCCC5)c3C)C2=O)cc1	ALOX12 inh 35.5µM (no result: ClpP mod)
CC(C)CS(=O)(=O)C1=NN2C(=N)/C(=C\c3ccc(OC(=O)c4ccco4)cc3)C(=O)N=C2S1	Rango release inh 25.9µM, ALOX12 inh inconclusive, Rango complex inh inconclusive (no result: TDP1 block)
COc1ccc(/C=C2/C(=O)N(Cc3ccco3)C(=O)N(C(C)C)C2=O)cc1	ALOX12 inh inconclusive, Rango complex inh inconclusive
O=C(c1ccc2nc3ccc(Cl)cc3c(=O)n2c1)N1CCC2(CC1)OCCO2	ClpP mod 14.1µM (no result: PTAP TSG101 blk, TDP1 block)
O=C(c1ccc(Cl)cc1)N1CCC2(CC1)OCCO2	none (no result: TDP1 block)
Cc1cccc(CC(=O)N2[C@H]3CC[C@@H]2c2cnc(-c4ccccc4)nc2C3)c1	none (no result: PTAP TSG101 blk, Rango release inh, TDP1 block, ClpP mod, Rango complex inh)
Cn1nc(C2CCCC2)cc1[C@H]1CN2CC[C@H]1C[C@@H]2CNS(=O)(=O)c1cccs1	none (no result: PTAP TSG101 blk, Rango release inh, TDP1 block, ClpP mod, Rango complex inh)
C=CCN1CCc2cccc3c2[C@H]1Cc1ccc(O)c(O)c1-3	ALOX12 inh 7.94µM (no result: TDP1 block, ClpP mod)
COc1ccc2c(c1O)-c1cc(O)cc3c1[C@@H](C2)N(C)CC3	none (no result: PTAP TSG101 blk, Rango release inh, ClpP mod, Rango complex inh)
COc1cc2c(cc1OCc1ccccc1)N([S+](=O)([O-])c1cccc(C)c1)CC21CCN(C)CC1	none (no result: PTAP TSG101 blk, Rango release inh, TDP1 block, ClpP mod, Rango complex inh)
CN1Cc2ccccc2-n2ccnc2C12CCN(C(=O)c1ccoc1)CC2	none (no result: PTAP TSG101 blk, Rango release inh, TDP1 block, ClpP mod, Rango complex inh)
C=CCN1C(=O)/C(=C/c2ccc(N3CCOCC3)o2)C(=O)NC1=S	Rango complex inh 58µM
Cc1ccc(/C=C2\C(=O)NC(=S)N(c3ccc(F)cc3)C2=O)o1	Rango release inh inconclusive, ALOX12 inh inconclusive, Rango complex inh inconclusive (no result: TDP1 block)
Cc1cc(C)cc(N2C(=O)/C(=C\c3ccc(N4CCN(C)CC4)o3)C(=O)NC2=S)c1	PTAP TSG101 blk inconclusive, Rango release inh inconclusive, ALOX12 inh inconclusive, Rango complex inh 51.7µM (no result: ClpP mod)
O=C1NC(=O)C(=Cc2ccc(N3CCOCC3)o2)C(=O)N1	PTAP TSG101 blk inconclusive, Rango complex inh inconclusive (no result: ClpP mod)
Cc1cc(Br)ccc1N1C(=O)CC(=O)NC1=O	ALOX12 inh 44.7µM
Oc1cc2c(cc1O)[C@H]1c3ccccc3CN[C@H]1CC2	ALOX12 inh 11.2µM! (no result: PTAP TSG101 blk, Rango release inh, ClpP mod, Rango complex inh)
O=S(=O)(NC[C@H]1C[C@@H]2CCN1C[C@@H]2CN1CCc2ccccc2C1)c1ccccc1	none (no result: PTAP TSG101 blk, Rango release inh, TDP1 block, ClpP mod, Rango complex inh)
O=C1NC2(CCCN(Cc3ccccn3)C2)Oc2ccccc21 (configuration not stated)	none (no result: PTAP TSG101 blk, Rango release inh, TDP1 block, ClpP mod, Rango complex inh)
CCOC(=O)C1CCN(/C=C2/C(=O)NC(=S)N(c3ccccc3F)C2=O)CC1	none
Cc1ccc(N2C(=O)/C(=C/N3CCN(C(=O)c4ccco4)CC3)C(=O)NC2=S)cc1C	ALOX12 inh 39.8µM

Assay outcomes deposited in PubChem by National Center for Advancing Translational Sciences (NCATS).
